US10183937B2

The chains behind the UniProt entries cited, without tags or fusion partners.
UniProt P08684, whole entry: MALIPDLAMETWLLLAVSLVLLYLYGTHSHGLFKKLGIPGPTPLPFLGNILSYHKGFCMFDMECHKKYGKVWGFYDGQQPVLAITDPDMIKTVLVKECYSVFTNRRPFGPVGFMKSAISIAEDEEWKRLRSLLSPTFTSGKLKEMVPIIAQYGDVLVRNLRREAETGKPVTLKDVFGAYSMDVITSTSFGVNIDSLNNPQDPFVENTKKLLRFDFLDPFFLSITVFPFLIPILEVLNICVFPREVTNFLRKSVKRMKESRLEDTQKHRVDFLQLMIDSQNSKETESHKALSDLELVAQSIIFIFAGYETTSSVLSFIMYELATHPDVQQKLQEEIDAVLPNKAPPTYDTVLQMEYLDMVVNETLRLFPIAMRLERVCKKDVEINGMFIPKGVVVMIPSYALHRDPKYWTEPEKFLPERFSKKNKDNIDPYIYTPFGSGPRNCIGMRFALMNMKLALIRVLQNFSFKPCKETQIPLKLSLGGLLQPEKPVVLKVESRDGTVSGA
UniProt P10632, whole entry: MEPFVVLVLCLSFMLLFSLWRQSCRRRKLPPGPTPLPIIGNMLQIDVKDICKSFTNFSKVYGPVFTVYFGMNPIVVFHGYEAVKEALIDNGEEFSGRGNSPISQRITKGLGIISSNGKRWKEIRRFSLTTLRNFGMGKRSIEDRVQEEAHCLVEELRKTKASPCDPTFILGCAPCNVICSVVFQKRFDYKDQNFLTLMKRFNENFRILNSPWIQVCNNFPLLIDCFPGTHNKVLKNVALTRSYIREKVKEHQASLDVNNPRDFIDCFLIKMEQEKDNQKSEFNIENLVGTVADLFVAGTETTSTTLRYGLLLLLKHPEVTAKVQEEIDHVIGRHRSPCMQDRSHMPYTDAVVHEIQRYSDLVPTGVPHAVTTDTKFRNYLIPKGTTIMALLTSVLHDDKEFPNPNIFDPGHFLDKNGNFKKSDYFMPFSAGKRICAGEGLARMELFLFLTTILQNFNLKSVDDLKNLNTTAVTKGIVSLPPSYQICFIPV
UniProt P11712, whole entry: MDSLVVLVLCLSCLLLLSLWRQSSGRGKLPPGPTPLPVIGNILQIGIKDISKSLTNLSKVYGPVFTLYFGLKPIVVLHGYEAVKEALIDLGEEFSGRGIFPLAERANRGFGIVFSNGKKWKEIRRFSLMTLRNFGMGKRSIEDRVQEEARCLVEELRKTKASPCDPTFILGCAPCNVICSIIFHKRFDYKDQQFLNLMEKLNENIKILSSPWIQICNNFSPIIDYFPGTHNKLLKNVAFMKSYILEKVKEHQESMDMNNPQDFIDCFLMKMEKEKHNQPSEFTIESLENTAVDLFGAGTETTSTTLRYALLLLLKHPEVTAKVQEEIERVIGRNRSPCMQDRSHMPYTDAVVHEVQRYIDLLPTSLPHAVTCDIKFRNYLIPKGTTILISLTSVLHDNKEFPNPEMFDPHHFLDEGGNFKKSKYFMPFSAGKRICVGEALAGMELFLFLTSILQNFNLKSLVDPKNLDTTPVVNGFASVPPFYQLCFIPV
UniProt P10635, whole entry: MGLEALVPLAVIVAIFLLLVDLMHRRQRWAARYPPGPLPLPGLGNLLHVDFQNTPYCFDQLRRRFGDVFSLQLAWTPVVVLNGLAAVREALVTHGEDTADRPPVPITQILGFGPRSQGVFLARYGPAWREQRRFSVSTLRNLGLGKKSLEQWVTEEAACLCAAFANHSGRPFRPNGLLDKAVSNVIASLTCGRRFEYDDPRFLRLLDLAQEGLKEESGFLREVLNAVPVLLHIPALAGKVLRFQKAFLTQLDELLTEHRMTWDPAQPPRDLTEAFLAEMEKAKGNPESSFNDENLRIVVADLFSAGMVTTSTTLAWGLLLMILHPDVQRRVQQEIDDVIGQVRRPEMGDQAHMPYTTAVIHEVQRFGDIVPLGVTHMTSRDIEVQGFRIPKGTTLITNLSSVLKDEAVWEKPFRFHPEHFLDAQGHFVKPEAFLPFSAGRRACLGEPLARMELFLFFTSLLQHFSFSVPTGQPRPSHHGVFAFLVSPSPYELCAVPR
UniProt P05177, whole entry: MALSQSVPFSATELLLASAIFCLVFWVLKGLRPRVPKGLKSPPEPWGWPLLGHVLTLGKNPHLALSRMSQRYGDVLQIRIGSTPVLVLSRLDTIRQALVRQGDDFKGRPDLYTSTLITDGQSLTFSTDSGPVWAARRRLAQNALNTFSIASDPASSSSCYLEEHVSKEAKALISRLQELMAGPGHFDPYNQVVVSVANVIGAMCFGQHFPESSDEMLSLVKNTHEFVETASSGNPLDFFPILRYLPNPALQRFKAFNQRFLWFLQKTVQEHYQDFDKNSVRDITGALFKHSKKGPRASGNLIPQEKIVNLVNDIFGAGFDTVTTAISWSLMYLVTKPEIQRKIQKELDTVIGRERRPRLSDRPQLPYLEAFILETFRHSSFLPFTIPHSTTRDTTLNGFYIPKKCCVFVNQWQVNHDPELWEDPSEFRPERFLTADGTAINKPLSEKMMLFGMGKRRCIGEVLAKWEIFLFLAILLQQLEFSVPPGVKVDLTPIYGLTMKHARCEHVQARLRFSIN

Columns and labels:
CYP3A4 [1] = molecular target: T1, CYP3A4 (Homo sapiens (Human), UniProt P08684); test: CYP inhibition assay in human liver microsomes, CYP3A4; assay type: in vitro ADME; conditions: read-out: CYP3A4 IC50, probe midazolam
CYP2C8 = CYP2C8 (Homo sapiens (Human), UniProt P10632)
CYP2C9 = CYP2C9 (Homo sapiens (Human), UniProt P11712); test: CYP inhibition assay in human liver microsomes, CYP2C9; assay type: in vitro ADME; conditions: read-out: CYP2C9 IC50, probe diclofenac
[2] = Human liver cytosol stability assay; assay type: in vitro ADME; conditions: 4 h incubation
CYP3A4 [3] = molecular target: T1, CYP3A4; test: Pre-incubation CYP inhibition assay; assay type: in vitro ADME; conditions: read-out: CYP3A4 with preincubation IC50; 30 min pre-incubation
CYP2D6 = CYP2D6 (Homo sapiens (Human), UniProt P10635)
CYP1A2 = CYP1A2 (Homo sapiens (Human), UniProt P05177)

Cc1ccc(-c2cc(OC3CCOC3)cc(C(=O)N[C@H](C)c3ccc(C)nc3)c2)nc1 (stereo partly shown)
IC50 (CYP3A4 [1]): > 20 µM
IC50 (CYP2C8): > 20 µM
IC50 (CYP2C9): 19.8 µM
Test compound turnover after 4 h [2]: 55%
IC50 (CYP3A4 [3]): 18 µM
IC50 (CYP2D6): > 20 µM
IC50 (CYP1A2): > 20 µM
